From patent publication US20090209577A1, “Novel Triazolopyridine Compounds” (PFIZER INC., priority 2004, published 2009)

By UniProt entry, the sequences of proteins in these tests, tags left out.
UniProt Q16539, whole entry: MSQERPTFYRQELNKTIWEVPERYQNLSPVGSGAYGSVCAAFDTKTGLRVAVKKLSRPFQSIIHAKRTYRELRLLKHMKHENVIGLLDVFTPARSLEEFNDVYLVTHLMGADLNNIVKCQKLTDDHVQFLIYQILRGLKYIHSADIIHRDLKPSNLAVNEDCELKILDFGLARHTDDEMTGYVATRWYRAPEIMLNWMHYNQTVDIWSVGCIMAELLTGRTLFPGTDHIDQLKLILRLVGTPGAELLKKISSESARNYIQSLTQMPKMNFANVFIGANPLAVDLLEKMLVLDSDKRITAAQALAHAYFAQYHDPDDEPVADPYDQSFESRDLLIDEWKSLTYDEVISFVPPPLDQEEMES

Biological target: T1, human p38 kinase alpha (Homo sapiens, UniProt Q16539)
T1 construct: The coding region of the human p38a cDNA was obtained by PCR-amplification from RNA isolated from the human monocyte cell line THP.1; made in house; host or cells: E. coli DH10B
Experiment: p38 kinase in vitro assay (PHAS-I / 32P-ATP format or EGFRP / 33P-ATP format)
Assay type: biochemical
Settings: activated human p38 kinase alpha, 50 μM unlabeled ATP; two assay formats, table does not say which
Procedure: The ability of compounds to inhibit human p38 kinase alpha was evaluated using two in vitro assay methods. In the first method, activated human p38 kinase alpha phosphorylates a biotinylated substrate, PHAS-I (phosphorylated heat and acid stable protein-insulin inducible), in the presence of gamma ^32P-ATP (^32P-ATP). PHAS-I was biotinylated prior to the assay and provides a means of capturing the substrate, which is phosphorylated during the assay. p38 Kinase was activated by MKK6. Compounds were tested in 10 fold serial dilutions over the range of 100 μM to 0.001 μM using 1% DMSO. Each concentration of inhibitor was tested in triplicate.
All reactions were carried out in 96 well polypropylene plates. […]
Following incubation, 20 μl of reaction mixture was transferred to a high capacity streptavidin coated filter plate (SAM-streptavidin-matrix, Promega) prewetted with phosphate buffered saline. […] The plates were sealed and counted.
A second assay format was also employed that is based on p38 kinase alpha induced phosphorylation of EGFRP (epidermal growth factor receptor peptide, a 21 mer) in the presence ^33P-ATP. […] Compounds were evaluated in 50 μl reaction volumes in the presence of 25 mM Hepes pH 7.5, 10 mM magnesium acetate, 4% glycerol, 0.4% bovine serum albumin, 0.4 mM DTT, 50 μM unlabeled ATP, 25 μg EGFRP (200 μM), and 0.05 μCi ^33P-ATP. […]

For Cc1ccc(C(N)=O)cc1-c1nnc2ccc(CCc3ccc(F)cc3F)cn12 (racemic) [Example 22, racemic 3-{6-[2-(2,4-difluorophenyl)ethyl]-5,6,7,8-tetrahydro[1,2,4]triazolo[4,3-a]pyridin-3-yl}-4-methylbenzamide], which IC50 is on record?
The IC50 was 40.2 nM.
